In PubChem BioAssay AID641 (Vanderbilt High Throughput Screening Facility, 2007):
The entries are a selection whose mix differs from that of the whole data set. Active and inactive are the calls of the source.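 How the source made its calls: active means luminescence count or its row- and column-corrected plate score outside the 99.7% band of the plate's sample wells, on either side; inactive means the rest.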

By UniProt entry, the sequences of proteins in these tests, tags left out.
UniProt P21728, whole entry, looked up: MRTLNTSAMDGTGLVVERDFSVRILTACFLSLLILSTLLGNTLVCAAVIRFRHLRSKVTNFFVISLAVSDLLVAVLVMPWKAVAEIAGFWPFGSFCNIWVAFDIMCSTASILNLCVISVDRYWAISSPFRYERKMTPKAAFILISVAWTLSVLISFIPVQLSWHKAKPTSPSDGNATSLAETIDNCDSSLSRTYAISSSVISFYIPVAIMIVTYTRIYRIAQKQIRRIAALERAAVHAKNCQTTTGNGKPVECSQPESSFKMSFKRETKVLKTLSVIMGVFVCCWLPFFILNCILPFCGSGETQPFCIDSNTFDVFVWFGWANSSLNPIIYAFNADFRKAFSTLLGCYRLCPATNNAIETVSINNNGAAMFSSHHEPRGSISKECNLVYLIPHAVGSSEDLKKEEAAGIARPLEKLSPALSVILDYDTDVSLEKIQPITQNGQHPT

Each compound was assayed against D(1A) dopamine receptor (Homo sapiens) (UniProt P21728) (assay: D1 CRE-luciferase signal change, two-sided – cell-based, HEK293 D1, dopamine EC30, D1 allosteric modulator project, primary screen (AID 641)). Conditions: dopamine EC30 potentiation, at 10 µM, actives deviate in either direction.
With `CCOP1(=S)c2c(C)nn(CCC#N)c2N=C(c2ccccc2F)N1C` (centres undefined) the B-score was inactive: 1.09. For `O=P(Nc1nccs1)(c1ccccc1)c1nc2ccccc2s1` (centres undefined), the B-score was inactive: 0.112. For `CCOP1(=S)c2c(C)nn(CCC#N)c2N=C(c2ccc(F)cc2)N1C` (centres undefined), the B-score was inactive: 1.43. In the case of `Cc1nn(-c2ccccc2)c2c1P(=O)(N1CCOCC1)N(C)C(c1ccccc1)=N2` (centres undefined), the B-score is reported as inactive: 0.362. For `Clc1n[nH]nc1-c1nn[nH][15n]1`, the B-score was inactive: -0.303. In the case of `O=P1(Nc2ccccn2)COc2ccccc2OC1`, the B-score is reported as inactive: -0.0118. In the case of `O=C(COc1ccccc1)OC1CN2CCC1CC2` (centres undefined), the B-score is reported as inactive: -0.278. `COP1(=S)c2c(C)nn(CCC#N)c2N=C(c2ccc(F)cc2)N1C` (centres undefined) was tested, and the B-score was inactive: 0.325. With `O=C(OC1CN2CCC1CC2)C12CC3CC(CC(C3)C1)C2` (centres undefined) the B-score was inactive: 0.194. `Cc1c2non([O-])c-2c(C)[n+](=O)[n+]1[O-]` was tested, and the B-score was inactive: 0.0738. `CCc1nc2c(n1)c1c(non1O)c1c2no[n+]1[O-]` was tested, and the B-score was inactive: 0.0637. `c1nnnn1CCn1cnnn1` was tested, and the B-score was inactive: 0.0581. `O=P(Nc1nccs1)(c1ccccc1)c1ccccc1` was tested, and the B-score was inactive: -1.3. For `COC(=O)c1cc2c(s1)N=C(c1ccccc1)N(C)P2(=O)N1CCOCC1` (centres undefined), the B-score was inactive: -0.91.
